The nature of data set [1]: FLX plasma levels at the drinking-water dose used. To be noted: FLX 155 mg/L drinking water, ~20 mg/kg/d. The data set is classed as in vivo, mice.
Data set [2] relates to brain tissue 5-HT. The experiment in a line: Tissue 5-HT and 5-HIAA analysis (HPLC-EC) in frontal cortex and hippocampus. Type of data set: in vivo. To be noted: 5-HTP in drinking water 4 mg/ml≈320 mg/kg/day, no carbidopa, 5-HT deficient Tph2KI (R439H) mice.

Entries after “also recorded” stand apart in the source; their conditions may differ.

As for `CNCCC(Oc1ccc(C(F)(F)F)cc1)c1ccccc1` (centres unmarked) [FLX, fluoxetine], the “FLX plasma levels relative to the clinical” value in data set [1] is on record as approximately 10 × the clinical.

Turning to `N[C@@H](Cc1c[nH]c2ccc(O)cc12)C(=O)O` [5-HTP, 5-hydroxytryptophan], the “brain/tissue 5-HT level” value in data set [2] is given as “robustly restored brain 5-HT; also recorded: restores tissue 5-HT levels; also recorded: restores brain 5-HT”.

Values taken from US9468627B2, “Slow-release formulations of 5-hydroxytryptophan as an adjunct to pro-serotonergic therapies” (Duke University, priority 2010, dated 2016).
